From ChEMBL document CHEMBL2146442, “High-affinity and selective dopamine D₃ receptor full agonists” (Bioorg Med Chem Lett, 2012)

Tests used:
[1] = Selectivity ratio of dopamine D2 receptor to dopamine D3 receptor
[2] = Selectivity ratio of dopamine D1 like receptor to dopamine D3 receptor

Selectivity ratio [1]: 100
Selectivity ratio [2]: > 1000
Compound: Cc1ncoc1-c1nnc(SCCCN2CC3CC3(c3ccc(C(F)(F)F)cc3F)C2)n1C (configuration not stated)
